The test system of one data set is HepG2 cells. As to conditions: 24 hours incubation, especially at 50 μM; data not shown.
The subject of data set [1] is PXR target genes in SKOV-3 cells.
For another data set, the system named is SKOV-3 cells. The conditions noted are these: MTT; 48-96 hr exposure (T1317: 48 hours, normalized to GSK1385).

As for `CC(=O)N1CCN(c2ccc(OCC3COC(Cn4ccnc4)(c4ccc(Cl)cc4Cl)O3)cc2)CC1` (stereo not drawn) [Ketoconazole, ketoconazole], the “cytotoxicity in HepG2 cells (in words)” value with HepG2 cells is reported as “toxic”. As for rifampicin, in data set [1], the “transcription of MDR-1 or MRP-2 genes” value is given as “no increased transcription”. Moreover, the “SKOV-3 cell survival (in words)” value with SKOV-3 cells is recorded as “significant increase in cell survival”.

The values above are taken from patent publication US8669260B2, “Ketoconazole-derivative antagonist of human pregnane X receptor and uses thereof” (priority 2008, dated 2014).
